In PubChem BioAssay (NCI):
This is a selection; strong and weak results do not stand in their true shares. Where a structure was tested more than once in an assay, its records may differ in their call. Activity calls are given as the source filed them. Cut-off read from the data, not from the text of the source: active = growth inhibition above about 70%; inactive = the rest.

Experiments:
[1] = NCI Yeast Anticancer Drug Screen. Data for the rad50 strain (AID 155);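 note: 0% = growth of vehicle-only cultures of the same strain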; settings: S. cerevisiae rad50 strain growth inhibition; at 50.0 µM; active compounds read high
[2] = NCI Yeast Anticancer Drug Screen. Data for the mec2-1 strain (AID 157); settings: S. cerevisiae mec2-1 strain, at 50.0 µM, active compounds read high
[3] = NCI Yeast Anticancer Drug Screen. Data for the sgs1 mgt1 strain (AID 161);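 note: 0% = growth of cultures given vehicle only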; settings: S. cerevisiae sgs1 mgt1 strain, at 50.0 µM, active compounds read high
[4] = NCI Yeast Anticancer Drug Screen. Data for the cln2 rad14 strain (AID 165);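 note: 0% = growth equal to vehicle treated cultures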; settings: S. cerevisiae cln2 rad14 strain, at 50.0 µM, active compounds read high
[5] = NCI Yeast Anticancer Drug Screen. Data for the bub3 strain (AID 167); settings: S. cerevisiae bub3 mutant strain, at 50.0 µM, active compounds read high
[6] = NCI Yeast Anticancer Drug Screen. Data for the mlh1 rad18 strain (AID 175); settings: S. cerevisiae mlh1 rad18 strain growth inhibition; at 50.0 µM; active compounds read high

Measured: growth inhibition

O=C(O)CCc1ccc(Oc2cc([N+](=O)[O-])c([N+](=O)[O-])c([N+](=O)[O-])c2)cc1
inactive: [1] 49.5% | [2] 6.6% | [3] 52.8% | [4] -10.6% | [5] -2.8% | [6] 26.1%

CCOP(=O)(N=C(Nc1ccccc1)Nc1ccccc1)OCC
inactive: [1] 1.5% | [2] -1.25% | [3] -2.55% | [4] 11.7% | [5] -0.1% | [6] 4.3%

Nc1ncnc2nc[nH]c12
inactive: [1] 2.05% | [2] -5.3% | [3] 0.75% | [4] 6% | [5] 21.2% | [6] 3.7%

ClCCN(Cc1ccccc1)Cc1cccs1
inactive: [1] 3.2% | [2] 12.6% | [3] 13.9% | [4] -22.6% | [5] -13.9% | [6] 12.6%

CC1([N+](=O)[O-])COP(=O)(N(CCCl)CCCl)OC1 (centres undefined)
inactive: [1] -0.65% | [2] 10.2% | [3] 0.9% | [4] -58.6% | [5] -5.5% | [6] -16.6%

C[Si](C)(C)CCOC(=O)N(CCCl)CCCl
inactive: [1] -17.8% | [2] -78.2% | [3] -24.1% | [4] -20.1% | [5] -43% | [6] -31.6%

CC(C)N[N+](=O)[O-]
inactive: [1] -9.1% | [2] -7.85% | [3] -2.1% | [4] 7.1% | [5] -9.25% | [6] -2%

COC(=O)C(CCl)(NC(C)=O)SC(C)=O (centres undefined)
inactive: [1] 19.1% | [2] 14.4% | [3] 2.8% | [4] 2.15% | [5] 6.45% | [6] -4.45%

CCOc1ccc(C(=O)N(CCCl)CCCl)cc1
inactive: [1] 20.8% | [2] -8.35% | [3] 13.8% | [4] -13.3% | [5] -5.1% | [6] 2.1%
